# Data reported in patent US8637026B2, “Anti-C35 antibody combination therapies and methods” (Vaccinex, Inc., priority 2007, dated 2014).
# Columns and labels:
# metastatic breast cancer = conditions: cited from earlier work
# BT474 cells = experiment: AnnexinV/Sytox Green FACS and anti-C35 surface staining of trastuzumab-treated BT474 cells (Example 3); format: cell-based, human; conditions: 4 ug/ml, 5 days
# [1] = monotherapy, metastatic breast cancer patients
substance,measurement,setting,value
"trastuzumab: recombinant humanized monoclonal anti-HER2 antibody (Herceptin, Genentech)",patients progression free,metastatic breast cancer; at 5.8 months,Twenty-four
same,median duration of response,metastatic breast cancer; [1],9.1 months
same,median survival,metastatic breast cancer; [1],12.8 months
same,overall response rate,metastatic breast cancer; [1],14%
same,partial responders,metastatic breast cancer; [1],12%
same,C35 translocation to the outer cell membrane (anti-C35 antibody staining),BT474 cells,translocate the C35 protein to the outer cell membrane
same,Percentage of cells Dead (AnnexinV+/Sytox Green hi),BT474 cells,4.28%
same,Percentage of cells Early Apoptotic (AnnexinV+/Sytox Green−),BT474 cells,0.65%
same,Percentage of cells Late Apoptotic (AnnexinV+/Sytox Green low),BT474 cells,2.91%
